Calls of active or inactive are those of the source.
Key:
[1] = test system: Rattus norvegicus; assay: Inhibition of morphine-induced antinociception in Sprague-Dawley rat assessed as reduction in tail withdrawal latency at 5 mg/kg, iv treated 20 mins after morphine addition measured 30 and 60 mins post morphine injection by tail-flick test
[2] = test system: Rattus norvegicus; assay: Inhibition of morphine-induced antinociception in iv dosed Sprague-Dawley rat assessed as reduction in tail withdrawal latency treated 20 mins after morphine addition measured up to 120 mins post morphine injection by tail-flick test
[3] = test system: Rattus norvegicus; assay: Inhibition of morphine-induced analgesia in iv dosed Sprague-Dawley rat assessed as reduction in fore-paw heat withdrawal threshold treated 20 mins after morphine addition measured up to 120 mins post morphine injection by hot plate test
[4] = test system: Rattus norvegicus; assay: Inhibition of morphine-induced analgesia in Sprague-Dawley rat assessed as reduction in fore-paw heat withdrawal threshold at 5 mg/kg, iv treated 20 mins after morphine addition measured 30 mins post morphine injection by hot plate test

Measured: inhibition

Cc1cc(O)cc(C)c1C[C@@H]1NC(=O)[C@H](CCCCN)NC(=O)[C@H](Cc2ccccc2)NC(=O)[C@@H](CCCNC(=N)N)NC1=O
active: [1] | [2] Dose-dependent effect | [3] Dose-dependent effect | [4]

Reference: ChEMBL document CHEMBL3862004, “A Cyclic Tetrapeptide ("Cyclodal") and Its Mirror-Image Isomer Are Both High-Affinity μ Opioid Receptor Antagonists” (J Med Chem, 2016)
